From patent EP2505659A1, “Methods for the identification of dioxygenase interacting molecules and for the purification of dioxygenase proteins” (CELLZOME AG, priority 2011, dated 2012)

By UniProt entry, the sequences of proteins in these tests, tags left out. Where a name states a change or a piece, a line headed by the entry shows the natural chain unless it says otherwise.
UniProt Q6P6C2: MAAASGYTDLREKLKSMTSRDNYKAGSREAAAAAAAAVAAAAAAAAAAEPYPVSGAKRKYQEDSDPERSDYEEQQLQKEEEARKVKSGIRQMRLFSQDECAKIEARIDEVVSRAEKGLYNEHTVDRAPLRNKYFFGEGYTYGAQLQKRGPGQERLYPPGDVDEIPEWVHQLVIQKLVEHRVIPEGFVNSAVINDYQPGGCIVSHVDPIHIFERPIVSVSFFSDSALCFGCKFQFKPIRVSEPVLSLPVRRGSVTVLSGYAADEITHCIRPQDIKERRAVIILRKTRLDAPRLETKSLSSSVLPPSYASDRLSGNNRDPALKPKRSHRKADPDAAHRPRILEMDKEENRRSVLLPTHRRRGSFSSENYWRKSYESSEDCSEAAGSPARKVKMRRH

Columns and labels:
[1] = biological target: T1, LEPREL2 (Homo sapiens, UniProt Q8IVL6); test: Bead competition binding assay, immobilized compound A, K-562, HL-60 and Jurkat nuclear lysates; set-up: capturing and identification of dioxygenases from nuclear protein extracts; endogenous in cells; conditions: 100 µM free compound A, HL-60 nuclear lysate, read-out: Fold change versus DMSO control
T1 sequence (Q8IVL6 21-736): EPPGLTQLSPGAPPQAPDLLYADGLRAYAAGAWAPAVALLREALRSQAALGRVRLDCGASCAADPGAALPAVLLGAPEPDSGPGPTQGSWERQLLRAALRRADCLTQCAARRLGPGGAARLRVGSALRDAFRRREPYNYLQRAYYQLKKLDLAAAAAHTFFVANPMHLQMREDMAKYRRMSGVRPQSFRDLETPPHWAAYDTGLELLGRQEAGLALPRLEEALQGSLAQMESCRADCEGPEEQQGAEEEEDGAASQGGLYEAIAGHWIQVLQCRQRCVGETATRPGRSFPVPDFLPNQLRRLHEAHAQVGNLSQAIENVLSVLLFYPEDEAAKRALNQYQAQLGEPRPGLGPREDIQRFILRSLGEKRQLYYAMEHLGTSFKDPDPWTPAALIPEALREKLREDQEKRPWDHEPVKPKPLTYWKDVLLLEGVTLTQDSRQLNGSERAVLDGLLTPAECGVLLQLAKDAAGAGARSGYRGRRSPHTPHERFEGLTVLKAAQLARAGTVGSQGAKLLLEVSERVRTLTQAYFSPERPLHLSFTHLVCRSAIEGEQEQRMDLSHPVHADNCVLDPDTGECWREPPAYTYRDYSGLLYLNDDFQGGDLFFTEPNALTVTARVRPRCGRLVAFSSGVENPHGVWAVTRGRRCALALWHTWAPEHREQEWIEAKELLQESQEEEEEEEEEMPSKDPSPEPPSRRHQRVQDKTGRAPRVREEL
Text: (§1) K562 cells were also purchased from DSMZ (Braunschweig, Germany).
(§2) Table 5: Peptide elution off the LC system
(§3) Seventeen different dioxygenases were identified.

[2] = biological target: T2, ALKBH3 (Homo sapiens, UniProt Q96Q83); test: as above; set-up: capturing and identification of dioxygenases from nuclear protein extracts; endogenous in cells; conditions: 100 µM free compound A, K-562 nuclear lysate, read-out: Fold change versus DMSO control
T2 sequence (Q96Q83 1-286): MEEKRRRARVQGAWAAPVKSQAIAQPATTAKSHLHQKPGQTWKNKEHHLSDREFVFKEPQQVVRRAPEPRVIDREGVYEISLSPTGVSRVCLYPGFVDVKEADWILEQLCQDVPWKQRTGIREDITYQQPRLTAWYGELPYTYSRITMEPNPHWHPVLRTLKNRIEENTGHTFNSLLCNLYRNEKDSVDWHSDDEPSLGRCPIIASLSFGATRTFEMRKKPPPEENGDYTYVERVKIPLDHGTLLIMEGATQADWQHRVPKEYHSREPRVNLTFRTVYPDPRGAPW
Text: as §1, §2, §3

[3] = biological target: T3, PLOD1 (Homo sapiens, UniProt Q02809); test: as above; set-up: capturing and identification of dioxygenases from nuclear protein extracts; endogenous in cells; conditions: 100 µM free compound A, HL-60 nuclear lysate, read-out: Fold change versus DMSO control
T3 sequence (Q02809 19-727): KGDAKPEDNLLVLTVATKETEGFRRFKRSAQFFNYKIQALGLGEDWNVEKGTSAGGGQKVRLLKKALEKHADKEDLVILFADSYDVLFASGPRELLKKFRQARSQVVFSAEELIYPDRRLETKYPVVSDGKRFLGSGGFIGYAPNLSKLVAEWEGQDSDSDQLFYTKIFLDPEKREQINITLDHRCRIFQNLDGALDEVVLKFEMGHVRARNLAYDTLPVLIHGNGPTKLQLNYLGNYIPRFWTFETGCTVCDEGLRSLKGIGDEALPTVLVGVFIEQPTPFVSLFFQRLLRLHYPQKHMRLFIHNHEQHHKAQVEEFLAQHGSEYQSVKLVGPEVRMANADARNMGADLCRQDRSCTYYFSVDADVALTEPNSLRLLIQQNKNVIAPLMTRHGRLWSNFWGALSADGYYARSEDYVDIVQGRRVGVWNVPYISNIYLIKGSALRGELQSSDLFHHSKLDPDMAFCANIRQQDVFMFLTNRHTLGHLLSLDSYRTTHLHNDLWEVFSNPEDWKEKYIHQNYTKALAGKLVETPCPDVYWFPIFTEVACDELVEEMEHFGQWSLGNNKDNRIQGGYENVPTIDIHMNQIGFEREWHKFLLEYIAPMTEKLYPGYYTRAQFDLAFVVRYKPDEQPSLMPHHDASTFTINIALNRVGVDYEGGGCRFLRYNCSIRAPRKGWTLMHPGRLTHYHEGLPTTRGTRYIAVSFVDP
Text: as §1, §2, §3

[4] = biological target: ALKBH5 (Homo sapiens, UniProt Q6P6C2); test: biochemical; conditions: read-out: Fold change versus DMSO control
Description: Cells were harvested by centrifugation, washed once with 1 x PBS buffer (Invitrogen, #14190-094) and cell pellets were frozen in liquid nitrogen and subsequently stored at -80°C.
Cells were homogenized in a Potter S homogenizer in lysis buffer: 50 mM Tris-HCl, 0.8% NP40, 5% glycerol, 150 mM NaCl, 1.5 mM MgCl2, 25 mM NaF, 1 mM sodium vanadate, 1 mM DTT, pH 7.5. […] The supernatant was transferred again to a fresh 50 ml falcon tube, the protein concentration was determined by a Bradford assay (BioRad) and samples containing 50 mg of protein per aliquot were prepared.

O=C(O)CNC(=O)C1C(=O)OC2(CCNCC2)OC1=O [compound A, 2-(2,4-dioxo-1,5-dioxa-9-azaspiro[5.5]undecane-3-carboxamido)acetic acid hydrochloride]
remaining binding at 100 µM [1]: 20% | remaining binding at 100 µM [2]: 43% | remaining binding at 100 µM [3]: 78% | remaining activity at 200 µM [4]: 48%

Where a name gives a salt, the structure may show the parent alone.
